Literature values in publication PMC11329750 (Clinical and Translational Science, 2024).

System: pregnane X receptor (PXR)
Conditions: read-out: EC50 of binding to the PXR binding pocket; cited from earlier work

Q: With hyperforin as the substance, how does the pEC50 read?
A: 7.49

pEC50: −log10 of the molar value.
